We go through 14 molecules from PubChem BioAssay AID641 (Vanderbilt High Throughput Screening Facility, 2007).

By UniProt entry, the sequences of proteins in these tests, tags left out.
UniProt P21728, whole entry, looked up: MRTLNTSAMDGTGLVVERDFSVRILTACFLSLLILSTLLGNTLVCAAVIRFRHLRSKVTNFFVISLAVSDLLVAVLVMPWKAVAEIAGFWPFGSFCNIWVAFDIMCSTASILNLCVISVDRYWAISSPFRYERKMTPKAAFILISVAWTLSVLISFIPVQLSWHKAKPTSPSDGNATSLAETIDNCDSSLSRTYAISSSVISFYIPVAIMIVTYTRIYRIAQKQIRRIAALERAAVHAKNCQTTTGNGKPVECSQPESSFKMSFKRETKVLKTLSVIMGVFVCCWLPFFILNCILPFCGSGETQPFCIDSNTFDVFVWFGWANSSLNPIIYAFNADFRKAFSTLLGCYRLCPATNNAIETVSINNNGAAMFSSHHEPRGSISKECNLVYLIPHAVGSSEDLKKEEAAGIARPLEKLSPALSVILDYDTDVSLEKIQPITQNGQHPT

The entries are a selection whose mix differs from that of the whole data set. Calls of active or inactive are those of the source.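 The calls were made as follows: active = luminescence count or its row- and column-corrected plate score outside the 99.7% band of the plate's sample wells, on either side; inactive = the rest.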

The target of the assay is D(1A) dopamine receptor (Homo sapiens) (UniProt P21728). The assay is described as follows: D1 CRE-luciferase signal change, two-sided – cell-based, HEK293 D1, dopamine EC30, D1 allosteric modulator project, primary screen (AID 641). The conditions noted are these: dopamine EC30 potentiation, at 10 µM, actives deviate in either direction.
As to `CCOP1(=S)c2c(C)nn(CCC#N)c2N=C(c2ccccc2F)N1C` (centres undefined), the B-score was inactive: 1.09. Regarding `O=P(Nc1nccs1)(c1ccccc1)c1nc2ccccc2s1` (centres undefined), the B-score was inactive: 0.112. `CCOP1(=S)c2c(C)nn(CCC#N)c2N=C(c2ccc(F)cc2)N1C` (centres undefined): the B-score was inactive: 1.43.

For the molecule `Cc1nn(-c2ccccc2)c2c1P(=O)(N1CCOCC1)N(C)C(c1ccccc1)=N2` (centres undefined), the B-score was inactive: 0.362. For the molecule `Clc1n[nH]nc1-c1nn[nH][15n]1`, the B-score is inactive: -0.303. As for `O=P1(Nc2ccccn2)COc2ccccc2OC1`, the B-score is inactive: -0.0118. `O=C(COc1ccccc1)OC1CN2CCC1CC2` (centres undefined): the B-score was inactive: -0.278. Take `COP1(=S)c2c(C)nn(CCC#N)c2N=C(c2ccc(F)cc2)N1C` (centres undefined): the B-score is inactive: 0.325.

For the molecule `O=C(OC1CN2CCC1CC2)C12CC3CC(CC(C3)C1)C2` (centres undefined), the B-score was inactive: 0.194. On to `Cc1c2non([O-])c-2c(C)[n+](=O)[n+]1[O-]`, for which the B-score was inactive: 0.0738. The figure for `CCc1nc2c(n1)c1c(non1O)c1c2no[n+]1[O-]` is inactive: 0.0637; for `c1nnnn1CCn1cnnn1` it is inactive: 0.0581. Turning to `O=P(Nc1nccs1)(c1ccccc1)c1ccccc1`, the B-score was inactive: -1.3. In the case of `COC(=O)c1cc2c(s1)N=C(c1ccccc1)N(C)P2(=O)N1CCOCC1` (centres undefined) it was inactive: -0.91.
